Results reported in ChEMBL document CHEMBL4311946, “Mechanistic Insight on the Mode of Action of Colletoic Acid” (J Med Chem, 2019).

Chains of the proteins cited; added tags and fusions are not shown.
UniProt P28845, whole entry C272S: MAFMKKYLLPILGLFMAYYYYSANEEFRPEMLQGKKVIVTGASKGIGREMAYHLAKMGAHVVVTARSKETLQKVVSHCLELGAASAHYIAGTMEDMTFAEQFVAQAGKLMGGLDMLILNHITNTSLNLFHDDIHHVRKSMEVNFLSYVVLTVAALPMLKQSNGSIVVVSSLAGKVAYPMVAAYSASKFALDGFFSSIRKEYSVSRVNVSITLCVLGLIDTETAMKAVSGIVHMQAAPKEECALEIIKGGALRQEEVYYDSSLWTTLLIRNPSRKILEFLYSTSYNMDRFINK

Molecular target: 11-beta-hydroxysteroid dehydrogenase 1 (Homo sapiens, UniProt P28845, C272S)
Experiment: Inhibition of N-terminal MKHQHQHQHQHQHQQPL-tagged 11beta-HSD1 C272S mutant (unknown origin) expressed in Escherichia coli BL21 (DE3) using cortisol as substrate measured for 1 hr in presence of NADPH by fluorescence assay

IC50: 410 nM
Ki: 62 nM
Structure (SMILES): CC1(C)[C@@H](OC(=O)CCC(=O)O)CC[C@]2(C)[C@H]3C(=O)C=C4[C@@H]5C[C@@](C)(C(=O)O)CC[C@]5(C)CC[C@@]4(C)[C@]3(C)CC[C@@H]12 [CARBENOXOLONE]
